One data set deals with insomnia. Particulars: patients randomized to olanzapine or placebo.
For data set [1], the system named is muscarinic cholinergic receptor.
For data set [2] the following is noted: radiolabelled olanzapine.

On to `Cc1cc2c(s1)Nc1ccccc1N=C2N1CCN(C)CC1` [olanzapine, 2-methyl-4-(4-methyl-1-piperazinyl)-10H-thieno[2,3-b][1,5]benzodiazepine], for which the “usefulness for the treatment of insomnia” value with insomnia was “can be useful for the treatment of insomnia”. In addition, the “activity at the 5-HT1C receptor” value in the data set on 5-HT1C receptor is “active”. Moreover, the “muscarinic cholinergic receptor activity” value in data set [1] is given as “has muscarinic cholinergic receptor activity”. In addition, the detection in saliva result in data set [2] is “can be detected in the saliva”.

The values are drawn from patent US5744470A, “Method for treating insomnia” (Eli Lilly and Company, priority 1997, dated 1998).
